Results from patent US6869957B1, “Non-peptide tachykinin receptor antagonists” (Eli Lilly and Company, priority 1993, dated 2005).

The chains behind the UniProt entries cited, without tags or fusion partners.
UniProt P25103, whole entry: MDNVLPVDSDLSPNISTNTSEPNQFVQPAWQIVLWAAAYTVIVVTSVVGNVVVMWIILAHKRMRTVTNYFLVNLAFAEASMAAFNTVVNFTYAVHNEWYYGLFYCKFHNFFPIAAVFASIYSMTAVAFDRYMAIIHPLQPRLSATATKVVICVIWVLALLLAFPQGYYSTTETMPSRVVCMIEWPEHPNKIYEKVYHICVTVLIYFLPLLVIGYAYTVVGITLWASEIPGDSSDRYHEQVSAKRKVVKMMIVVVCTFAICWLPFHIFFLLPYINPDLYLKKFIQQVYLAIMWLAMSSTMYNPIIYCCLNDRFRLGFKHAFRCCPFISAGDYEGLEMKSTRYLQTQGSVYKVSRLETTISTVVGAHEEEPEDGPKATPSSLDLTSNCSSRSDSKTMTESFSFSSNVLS
UniProt P21452, whole entry: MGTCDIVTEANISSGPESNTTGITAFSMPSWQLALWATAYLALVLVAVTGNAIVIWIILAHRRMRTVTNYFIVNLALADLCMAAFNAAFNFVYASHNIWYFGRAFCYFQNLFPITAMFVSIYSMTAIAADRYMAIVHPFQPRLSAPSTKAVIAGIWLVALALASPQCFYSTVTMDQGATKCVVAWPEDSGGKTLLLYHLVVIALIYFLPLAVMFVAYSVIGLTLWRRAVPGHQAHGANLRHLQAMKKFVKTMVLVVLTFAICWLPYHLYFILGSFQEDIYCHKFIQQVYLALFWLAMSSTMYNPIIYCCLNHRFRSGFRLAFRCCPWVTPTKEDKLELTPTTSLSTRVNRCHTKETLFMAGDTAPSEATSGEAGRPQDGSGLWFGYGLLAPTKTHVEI

Assays:
NK-1 receptor = NK-1 receptor (Homo sapiens, UniProt P25103); assay: NK-1 Receptor Binding Assay (125I-labeled substance P, IM9 cells); settings: read-out: NK-1 IC50 nM; inhibits fifty percent of binding of 125I-substance P to IM9 cells
human NK-2 receptor = human NK-2 receptor (Homo sapiens, UniProt P21452); assay: NK-2 Receptor Binding Assay ([125I]iodohistidyl-neurokinin A, CHO-hNK-2R membranes); settings: read-out: NK-2 IC50 nM; inhibits fifty percent of binding of [125I]iodohistidyl-neurokinin A to CHO-hNK-2R membranes

IC50 (NK-1 receptor) [nM]	IC50 (human NK-2 receptor) [nM]	Structure (SMILES)
4.4	480	COc1ccccc1CN(CC(Cc1c[nH]c2ccccc12)NC(=O)CN1CCN(c2ccccc2)CC1)C(=O)CBr (stereo not shown)
41.1	510	COc1ccccc1CN(CC(Cc1c[nH]c2ccccc12)NC(=O)CNCC(=O)Nc1ccccc1)C(C)=O (stereo not shown)
